Literature values, collected in US20230091671A1 (priority 2020, published 2023).
Where a name gives a salt, the structure may show the parent alone.

Conditions: in vivo; cited from earlier work

CCN1CC(CCN2CCOCC2)C(c2ccccc2)(c2ccccc2)C1=O (stereo not shown) [Doxapram hydrochloride, 1-ethyl-4-[2-(4-morpholinyl)ethyl]-3,3-diphenyl-2-pyrrolidinone monohydrochloride, monohydrate]
metabolism (enzymes / pathway): ring hydroxylation to ketodoxapram
